The results in this text go back to publication PMC11876671, “Investigating blood–brain barrier penetration and neurotoxicity of natural products for central nervous system drug development” (Scientific Reports, 2025).

The data set is described as follows: in vitro. To be noted: PAMPA, PAMPA-BBB Pe(10^-6 cm/sec).

In turn, `COc1cc([C@@H]2c3cc4c(cc3[C@@H](O)[C@H]3COC(=O)[C@H]23)OCO4)cc(OC)c1O` displayed a Papp of 9.1 ×10⁻⁶ cm/s.
